From patent US12497394B2, “Fused-cyclic pyrazolone formamide compound and preparation method therefor, pharmaceutical composition and use thereof” (SHANGHAI INSTITUTE OF MATERIA MEDICA, CHINESE ACADEMY OF …, priority 2018, dated 2025)
Where two headings read alike, the source gives them in different places.

Target: T1, receptor tyrosine kinase AXL (Homo sapiens, UniProt P30530)
T1 construct: 50 μL of AXL kinase domain recombinant protein diluted in reaction buffer was added to start the reaction; made in house; host or cells: insect cells (baculovirus expression system)
T1 sequence (P30530 536-807 limits assumed): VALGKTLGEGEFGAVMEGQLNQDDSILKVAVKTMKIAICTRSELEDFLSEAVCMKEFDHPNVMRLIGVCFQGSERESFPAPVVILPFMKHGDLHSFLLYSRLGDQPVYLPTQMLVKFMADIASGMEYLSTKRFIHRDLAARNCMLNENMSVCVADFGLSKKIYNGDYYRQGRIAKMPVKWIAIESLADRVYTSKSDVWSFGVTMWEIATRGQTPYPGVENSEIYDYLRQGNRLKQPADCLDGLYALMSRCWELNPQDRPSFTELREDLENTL
Test: Enzyme activity of receptor tyrosine kinase AXL (ELISA)
Format: biochemical
Settings: for inhibition at 0.01 µM / inhibition at 0.1 µM / inhibition at 1 µM / inhibition at 0.001 µM: read-out: AXL activity Inhibitory rate(%)
Description: Detection method: Enzyme-linked immunosorbent assay (ELISA)
Tested receptor tyrosine kinase: AXL
The full-wavelength microplate reader for experiment reading was a product of Molecular Device, model: SpectraMax 190; the experiment water was distilled water produced by Sinopharm Group.
Compound preparation: The compounds were centrifuged at 12,000 g for 5 min, and DMSO was added to prepare a 10^−2M stock solution, vortexed evenly and sonicated for 10 min for use, and stored at −40° C. During the test, the compound was diluted from the stock solution to 100 times the tested concentration with DMSO (the DMSO concentration in the system was 1%).
1. […] Discard the liquid from the well. The plate was washed and washed three times with T-PBS (0.1% Tween-20 in potassium-free PBS, 200 μL/well) for 5 minutes each time. The enzyme plate was dried in 37° C. dryer for 1-2 hours.
2. 49 μL of ATP solution diluted with reaction buffer (50 mM HEPES pH 7.4, 50 mM MgCl2, 0.5 mM MnCl2, 0.2 mM Na3VO4, 1 mM DTT) was added to each well, and […] of the tested compound was added to each well, and then 50 μL of AXL kinase domain recombinant protein diluted in reaction buffer was added to start the reaction. Two control wells without ATP were added in each experiment. (100 rpm) Reacted in 37° C. shaker for 1 hour. Discard the liquid from the well, and the plate was washed with T-PBS for three times.
3. […] Discard the liquid from the well, and the plate was washed with T-PBS for three times.
4. The horseradish peroxidase-labeled goat anti-mouse second antibody dilution (antibody diluted 1:2000 with BSA 5 mg/mL in T-PBS), 100 μL/well, and reacted in 37° C. shaker for 0.5 hours. Discard the liquid from the well, and the plate was washed with T-PBS for three times.
6. The reaction was quenched with 50 μL/well 2M […], and read at 490 nm using a tunable microplate reader VERSAmax.
The IC50 values were obtained by four-parameter regression analysis using the software supplied with the microplate reader.

| SMILES | IC50 (read-out: AXL activity IC50) | inhibition at 0.01 µM | inhibition at 0.1 µM | inhibition at 1 µM | inhibition at 0.001 µM | IC50 |
| --- | --- | --- | --- | --- | --- | --- |
| COc1cc2ncnc(Oc3ccc(NC(=O)c4c5n(n(-c6ccc(F)cc6)c4=O)CCCC5)cc3F)c2cc1OC [DC621043, N-(4-((6,7-dimethoxyquinazoline-4-yl)oxy)-3-fluorophenyl)-1-(4-fluorophenyl)-2-oxo-1,2,4,5,6,7-hexahydropyrazolo[1,5-a]pyridine-3-formamide] | 7.8 ± 1.1 nM | 49.1% | 98.5% | 100% | – | – |
| COc1cc2ncnc(Oc3ccc(NC(=O)c4c5n(n(-c6cc(F)ccc6F)c4=O)CCCC5)cc3F)c2cc1OC [DC621023, 1-(2,5-difluorophenyl)-N-(4-((6,7-dimethoxyquinazoline-4-yl)oxy)-3-fluorophenyl)-2-oxo-1,2,4,5,6,7-hexahydropyrazolo[1,5-a]pyridine-3-formamide] | 5.5 ± 1.6 nM | 80.2% | 100% | – | 37.5% | – |
| COc1cc2ncnc(Oc3ccc(NC(=O)c4c5n(n(-c6ccccc6)c4=O)CCCC5)cc3Cl)c2cc1OC [DC621069, N-(4-((6,7-dimethoxyquinazoline-4-yl)oxy)-3-chlorophenyl)-2-oxo-1-phenyl-1,2,4,5,6,7-hexahydropyrazolo[1,5-a]pyridine-3-formamide] | – | 71.2% | 96% | – | 9.7% | – |
| COc1cc2ncnc(Oc3ccc(NC(=O)c4c5n(n(-c6cc(F)ccc6F)c4=O)CCCC5)cc3Cl)c2cc1OC [DC621079, 1-(2,5-difluorophenyl)-N-(4-((6,7-dimethoxyquinazoline-4-yl)oxy)-3-chlorophenyl)-2-oxo-1,2,4,5,6,7-hexahydropyrazolo[1,5-a]pyridine-3-formamide] | – | 82.9% | 100% | – | 34.4% | – |
| COc1cc2ncnc(Oc3ccc(NC(=O)c4c5n(n(-c6cc(F)ccc6F)c4=O)CCCC5)cc3)c2cc1OC [DC621022, 1-(2,5-difluorophenyl)-N-(4-((6,7-dimethoxyquinazoline-4-yl)oxy)phenyl)-2-oxo-1,2,4,5,6,7-hexahydropyrazolo[1,5-a]pyridine-3-formamide] | 9.1 ± 0.2 nM | 66.5% | 100% | – | 13.5% | – |
| COc1cc2ncnc(Oc3ccc(NC(=O)c4c5n(n(-c6ccccc6)c4=O)CCCC5)cc3)c2cc1OC [DC621004, N-(4-((6,7-dimethoxyquinazoline-4-yl)oxy)phenyl)-2-oxo-1-phenyl-1,2,4,5,6,7-hexahydropyrazolo[1,5-a]pyridine-3-formamide] | – | 35.2% | 95.2% | 100% | – | – |
| COc1cc2ncnc(Oc3ccc(NC(=O)c4c5n(n(-c6ccc(F)cc6)c4=O)CCCC5)cc3Cl)c2cc1OC [DC621099, N-(4-((6,7-dimethoxyquinazoline-4-yl)oxy)-3-chlorophenyl)-1-(4-fluorophenyl)-2-oxo-1,2,4,5,6,7-hexahydropyrazolo[1,5-a]pyridine-3-formamide] | – | 64.4% | 100% | – | 19.2% | – |
| COc1cc2ncnc(Oc3ccc(NC(=O)c4c5n(n(-c6ccc(F)cc6)c4=O)CCCC5)c(F)c3)c2cc1OC [DC621059, N-(4-((6,7-dimethoxyquinazoline-4-yl)oxy)-2-fluorophenyl)-1-(4-fluorophenyl)-2-oxo-1,2,4,5,6,7-hexahydropyrazolo[1,5-a]pyridine-3-formamide] | – | 61.6% | 94.4% | – | 32.5% | – |
| COc1cc2ncnc(Oc3ccc(NC(=O)c4c5n(n(-c6ccccc6F)c4=O)CCCC5)c(F)c3)c2cc1OC [DC621056, N-(4-((6,7-dimethoxyquinazoline-4-yl)oxy)-2-fluorophenyl)-1-(2-fluorophenyl)-2-oxo-1,2,4,5,6,7-hexahydropyrazolo[1,5-a]pyridine-3-formamide] | – | 69.4% | 98.8% | – | 24% | – |
| COc1cc2nccc(Oc3ccc(NC(=O)c4c5n(n(-c6ccccc6)c4=O)CCCC5)cc3F)c2cc1OC [DC621001, N-(4-((6,7-dimethoxyquinoline-4-yl)oxy)-3-fluorophenyl)-2-oxo-1-phenyl-1,2,4,5,6,7-hexahydropyrazolo[1,5-a]pyridine-3-formamide] | 2.5 ± 0.3 nM | 80% | 100% | – | 32.2% | < 10 nM |
| COc1cc2ncnc(Oc3ccc(NC(=O)c4c5n(n(-c6ccccc6)c4=O)CCCC5)cc3F)c2cc1OC [DC621011, N-(4-((6,7-dimethoxyquinazoline-4-yl)oxy)-3-fluorophenyl)-2-oxo-1-phenyl-1,2,4,5,6,7-hexahydropyrazolo[1,5-a]pyridine-3-formamide] | 8.1 ± 0.2 nM | 66.6% | 100% | – | 17% | – |
| COc1cc2ncnc(Oc3ccc(NC(=O)c4c5n(n(-c6ccccc6F)c4=O)CCCC5)cc3Cl)c2cc1OC [DC621089, N-(4-((6,7-dimethoxyquinazoline-4-yl)oxy)-3-chlorophenyl)-1-(2-fluorophenyl)-2-oxo-1,2,4,5,6,7-hexahydropyrazolo[1,5-a]pyridine-3-formamide] | – | 52.2% | 97.8% | – | 31.6% | – |
| COc1cc2ncnc(Oc3ccc(NC(=O)c4c5n(n(-c6cc(F)ccc6F)c4=O)CCCC5)c(F)c3)c2cc1OC [DC621053, 1-(2,5-difluorophenyl)-N-(4-((6,7-dimethoxyquinazoline-4-yl)oxy)-2-fluorophenyl)-2-oxo-1,2,4,5,6,7-hexahydropyrazolo[1,5-a]pyridine-3-formamide] | – | 60% | 89.8% | – | 28% | – |
| COc1cc2ncnc(Oc3ccc(NC(=O)c4c5n(n(-c6ccccc6F)c4=O)CCCC5)cc3F)c2cc1OC [DC621034, N-(4-((6,7-dimethoxyquinazoline-4-yl)oxy)-3-fluorophenyl)-1-(2-fluorophenyl)-2-oxo-1,2,4,5,6,7-hexahydropyrazolo[1,5-a]pyridine-3-formamide] | 9.4 ± 3.2 nM | 70.1% | 89.4% | – | 14.2% | – |
